Reference: article PMC6718340 (Archives of biochemistry and biophysics, 2019)

Target: abHemO (A. baumannii LAC-4 HemO) (Acinetobacter baumannii, UniProt A0A0D5YK34)
Conditions: 1 μM abHemO, 20 mM Tris-HCl pH 8.0, heme 0.1 to 15 μM, ferric heme

C=CC1=C(C)C2=Cc3c(C=C)c(C)c4[n]3[Fe]([Cl])[n]3c(c(C)c(CCC(=O)O)c3=CC3=NC(=C4)C(C)=C3CCC(=O)O)=CC1=N2 [heme]
Kd: 430 nM
